Experimental data from patent EP2481744A1, “Aromatic bis-phosphoramidate additives as flame retardants for polymers” (EMPA Eidgenössische Materialprüfungs- und Forschungsanstalt, priority 2011, dated 2012).

Columns and labels:
[1] = Pyrolysis flow combustion calorimeter (PCFC) of the synthesized compounds; type: physicochemical; conditions: neat compound
[2] = Thermogravimetric analysis (TGA) of the synthesized compounds; type: physicochemical; conditions: neat compound, nitrogen, 10°C/min
[3] = Solubility in deionized water (shaking flask, phosphorus content by ICP-OES); conditions: 0.5 gm in 50 ml deionized water, 21 °C, 16 hrs

SMILES: COP(=O)(Nc1ccc(NP(=O)(OC)OC)cc1)OC
- PHRR ([1]; PCFC): 201 W/g
- Char at 800 °C ([1]; PCFC (% residue)): 34
- THC ([1]; PCFC, nitrogen, 40 to 800°C, 1°C/sec, average of three samples): 7.99 kJ/g
- Onset of decomposition [2]: 214 °C
- Residue at 500 °C [2]: 36
- Residue at 800 °C [2]: 20
- Solubility [3]: 330 µg/mL (≈ 1020 µM)

In brackets after ≈: the same amount, converted by molar mass.
